Kd data for one compound are collected here from ChEMBL document CHEMBL5625172, “Synthesis and evaluation of dihydrofuro[2,3-b]pyridine derivatives as potent IRAK4 inhibitors” (Eur J Med Chem, 2023).

The chains behind the UniProt entries cited, without tags or fusion partners.
UniProt Q9NWZ3, whole entry: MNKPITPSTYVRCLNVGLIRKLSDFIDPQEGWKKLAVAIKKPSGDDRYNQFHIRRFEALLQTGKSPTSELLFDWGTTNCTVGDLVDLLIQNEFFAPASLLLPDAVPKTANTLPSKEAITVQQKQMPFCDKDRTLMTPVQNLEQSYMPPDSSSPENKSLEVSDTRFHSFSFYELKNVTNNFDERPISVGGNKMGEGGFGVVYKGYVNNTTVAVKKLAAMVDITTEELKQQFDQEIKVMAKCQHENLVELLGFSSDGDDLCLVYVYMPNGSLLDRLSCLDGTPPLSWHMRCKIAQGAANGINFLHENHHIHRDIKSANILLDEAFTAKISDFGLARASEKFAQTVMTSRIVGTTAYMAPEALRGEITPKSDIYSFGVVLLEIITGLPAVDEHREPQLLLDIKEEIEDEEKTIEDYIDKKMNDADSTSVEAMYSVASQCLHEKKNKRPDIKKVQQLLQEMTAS

The target of the assay is Interleukin-1 receptor-associated kinase 4 (Homo sapiens, UniProt Q9NWZ3). Description: Binding affinity to IRAK4 (unknown origin) by kinomescan competition binding assay.

As for `Cn1cc(-c2cccc(NC(=O)c3cc4c(nc3O[C@H]3C[C@@H](O)C3)OC(C)(C)C4)n2)cn1`, the affinity, expressed as Kd, was 0.35 nM.

Usually Kd stands for the constant that tells how readily two partners part at equilibrium. A low value points to higher affinity.
